Values quoted from earlier work as cited in patent US6936632B2, “Fused pyrrole compounds, pharmaceutical agents containing the same, and the use thereof” (Merckle GmbH, priority 2000, dated 2005).

Chains of the proteins cited; added tags and fusions are not shown. Residues count along the entry.
UniProt P35354, 18-604, species assumed: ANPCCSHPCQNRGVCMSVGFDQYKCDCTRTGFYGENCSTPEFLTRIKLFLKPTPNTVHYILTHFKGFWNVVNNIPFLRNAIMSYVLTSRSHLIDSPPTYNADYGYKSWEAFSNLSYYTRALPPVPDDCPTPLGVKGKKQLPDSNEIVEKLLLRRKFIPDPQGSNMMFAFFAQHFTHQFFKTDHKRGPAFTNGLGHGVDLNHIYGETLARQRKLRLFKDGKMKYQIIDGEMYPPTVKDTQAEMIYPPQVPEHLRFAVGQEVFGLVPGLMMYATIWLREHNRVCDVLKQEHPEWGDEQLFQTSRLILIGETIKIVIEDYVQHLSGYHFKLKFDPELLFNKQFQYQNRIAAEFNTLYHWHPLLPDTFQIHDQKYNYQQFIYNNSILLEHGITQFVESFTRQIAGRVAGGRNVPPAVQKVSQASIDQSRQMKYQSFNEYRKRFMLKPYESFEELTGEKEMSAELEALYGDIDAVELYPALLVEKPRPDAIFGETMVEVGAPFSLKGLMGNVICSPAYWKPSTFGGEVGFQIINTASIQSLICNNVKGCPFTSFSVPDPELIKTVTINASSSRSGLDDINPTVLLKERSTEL

Biological target: cyclooxygenase-2 (Homo sapiens, UniProt P35354)
Conditions: cited from earlier work

In the case of `CS(=O)(=O)c1ccc(C2=C(c3ccc(F)cc3)C(=O)OC2)cc1` [lactone 5], the “activity on cyclooxygenase-2” value is listed as “high activity” and the “selectivity for cyclooxygenase-2 isoform” value is listed as “high selectivity”.
